Assay [1] deals with T1, Neu1 sialidase (Mus musculus, UniProt O35657).
T1 construct: […]; endogenous in cells; host or cells: BMC-2 macrophage cells
The assay can be described thus: cell-based. An excerpt:
Central to this process is that Neu1 and not Neu2,-3 and -4 forms a complex with TLR-2,-3 and -4 on the cell surface of naïve macrophage cells. […] Endotoxin LPS binding to TLR4 induces Neu1 with subsequent activation of NFκB and the production of nitric oxide and proinflammatory IL-6 and TNFα cytokines in primary and macrophage cell lines.

Assay [2] concerns the target T1, Neu1 sialidase. To be noted: read-out: IC50, inhibition of LPS-induced sialidase activity; live BMC-2 cells; Amith, Jayanth et al. 2009; cited from earlier work.

Read-outs that look alike come from different tables or passages of the source.

Data on 1 compound can be found in patent US12678418B2, “Compositions and methods for the treatment of threatened respiratory failure caused by coronavirus infection and disease” (ENCYT TECHNOLOGIES, INC., priority 2020, dated 2026).

What is called IC50 is the midpoint of a concentration-inhibition curve. As for `CCOC(=O)C1=C[C@@H](OC(CC)CC)[C@H](NC(C)=O)[C@@H](N)C1.O=P(O)(O)O` [OP, (3R,4R,5S)-4-acetylamino-5-amino-3-(1-ethylpropoxy)1-cyclohexene-1-carboxylic acid, ethyl ester, phosphate (1:1)], the figures for the IC50 at Neu1 sialidase [1] and on Neu1 sialidase [2] were 1.17 µM and 1.2 µM, respectively. On Neu1 sialidase [1] (TLR ligand treated live BMC-2 macrophage cells), the “potency relative to hydrolytic metabolite oseltamivir carboxylate in inhibiting sialidase activity” value was 1000 fold.
